The numbers were not newly measured in PMC5427923, “A novel CCR2 antagonist inhibits atherogenesis in apoE deficient mice by achieving high receptor occupancy” (Scientific Reports, 2017), which cites them from elsewhere.

The series relates to hCCR2b. As to conditions: ref Vilums et al. [25], tested as the radiolabelled form; cited from earlier work.

`CCO[C@H]1CN(C2CCC(O)(c3ccc4c(c3)OCO4)CC2)C[C@@H]1NC(=O)CNC(=O)c1cccc(C(F)(F)F)c1` (mixture of isomers) [INCB3344]: the KRI is given as 1.0 (1.0) and the RT is recorded as 76 min.
